In experiment [1] the target is CBP BRD protein (Homo sapiens, UniProt Q92793). Description: CBP inhibitory activity, TR-FRET assay of CBP bromodomain with Ac-H4 peptide. Particulars: read-out: CBP BRD IC50, CBP BRD protein 7.5 nM, Ac-H4 peptide 85 nM, 2 hours at room temperature. The procedure: CBP inhibitory activity was measured using a time resolved fluorescence resonance energy transfer (TR-FRET) experiment to verify the activity of CBP bromodomain.
(§1) The assay was performed in a final volume of 14 µl, optimized based on a CREBBP time resolved fluorescence resonance energy transfer (TR-FRET) assay kit (BPS Bioscience, cat. 32619) to maximize an assay window, and performed in a final volume of 14 µl, while maximizing the assay window. A TR-FRET fluorescence acceptor and a Tb donor were diluted in an assay buffer containing 2-[4-(2-hydroxyethyl)piperazin-1-yl]ethanesulfonic acid (hereafter, referred to as an assay buffer, BPS Bioscience, cat. 33012), and 3 µl of each solution was transferred to all wells of a white 384-low-volume well plate (Corning, cat. 4513). 2 µl of 4X Ac-H4 peptide (final concentration 85 nM) was transferred to high control wells and test wells. Each compound was prepared at 10 concentration points by serially diluting 3-fold from the highest concentration in a dimethyl sulfoxide solvent. The compound at each concentration was then diluted in the assay buffer to prepare a diluted compound solution that was 4-fold more concentrated than the final concentration. 2 µl of each compound or dimethyl sulfoxide prepared in this way was distributed into an assay plate so that the final test concentration was a minimum of 0.5 µM to a maximum of 10 µM (final dimethyl sulfoxide concentration 1%). 6 µL of 1X assay buffer was added to low control wells and 2 µl was added to high control and test wells. Then, 2 µl of 4X CBP BRD protein (final concentration 7.5 nM, BPS bioscience, cat 31128) was added to initiate a PPI reaction. The plate was reacted at room temperature for 2 hours before measuring the signal. The TR-FRET signal was measured using an EnVision Multilabel plate reader (PerkinElmer; Mirror LNACE/DELFIA Dual/Bias).
For data analysis, the values of each well were obtained using a TR-FRET ratio ((Signal 665 nm/Signal 615 nm)X20000. Data analysis was performed using the TR-FRET ratio ((Signal 665 nm/Signal 615 nm)X20000. Data were reported as percent inhibition compared to control wells based on the following equation: %Activity = ((FRETcompound - FRETLow av)/(FRETHigh av - FRETLow av))X100. IC50 analysis was determined by standard 4 parameter curve fitting according to an algorithm using GraphPad Prism 7.0 (GraphPad Software Inc., La Jolla, CA, USA). All data are expressed as mean ± standard error of the mean (SEM).

Chains of the proteins cited; added tags and fusions are not shown. Residues count along the entry.
UniProt Q92793, 1085-1192 limits assumed: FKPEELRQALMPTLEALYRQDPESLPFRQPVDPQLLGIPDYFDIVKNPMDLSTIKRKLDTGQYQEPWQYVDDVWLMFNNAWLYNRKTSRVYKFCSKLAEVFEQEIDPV

Experiment [2] concerns the target BRD4 (BD1) protein (Homo sapiens, UniProt O60885). Kind of experiment: BRD4 inhibitory activity, TR-FRET assay of BRD4 bromodomain with Ac-H4 peptide. Particulars: read-out: BRD4 (BD1) IC50, BRD4 (BD1) protein 7.5 nM, Ac-H4 peptide 15 nM, 2 hours at room temperature. As for the experimental part: BRD4 inhibitory activity was measured using a time resolved fluorescence resonance energy transfer (TR-FRET) experiment to verify the activity of BRD4 bromodomain.
as §1, with “32613)” for “32619)”, “15” for “85”, “BRD4 (BD1)” for “CBP BRD”, “31040)” for “31128)”, “Dual/Bias). For data analysis, the values of each well were obtained using a TR-FRET ratio ((Signal 665 nm/Signal 615 nm) X20000. Data analysis was performed using the TR-FRET ratio ((Signal 665 nm/Signal 615 nm) X20000. Data were reported as percent inhibition compared to control wells based on the following equation: %Activity = ((FRETcompound - FRETLow av)/(FRETHigh av - FRETLow av)) X100. IC50 analysis was determined by standard 4 parameter curve fitting according to an algorithm using GraphPad Prism 7.0 (GraphPad Software Inc., La Jolla, CA, USA). All data are expressed as mean ± standard error of the mean (SEM).” for “Dual/Bias).”

`CNC(=O)c1ccc(-c2ccc3c(c2)nc(C(C)(C)C(=O)OC)n3-c2ccc3c(c2)n(C)c(=O)n3C)cc1F`: the concentration for half-maximal inhibition (IC50) in experiment [1] is 0.5 to 5 µM; in experiment [2] it was over 5 µM.

Regarding `Cn1cncc1-c1nc2cc(-c3ccoc3)ccc2n1-c1ccc2c(c1)n(C)c(=O)n2C`, the IC50 is 0.5 to 5 µM in experiment [1] and over 5 µM in experiment [2].

With `Cc1ccc2c(-c3nc4cc(C5CCNCC5)ccc4n3-c3ccc4c(c3)n(C)c(=O)n4C)c[nH]c2c1`, the IC50 in experiment [1] was 0.5 to 5 µM; in experiment [2], over 5 µM.

Turning to `CNC(=O)c1ccc(-c2ccc3c(c2)nc(-c2ccccc2F)n3-c2ccc3c(c2)n(C)c(=O)n3C)cc1F`, the IC50 was 0.5 to 5 µM in experiment [1] and over 5 µM in experiment [2].

With `Cn1cncc1-c1nc2cc(-c3ccccc3C#N)ccc2n1-c1ccc2c(c1)n(C)c(=O)n2C`, the IC50 in experiment [1] is 0.5 to 5 µM; in experiment [2] it was over 5 µM.

Take `Cn1cncc1-c1nc2cc(-c3ccc(C=O)o3)ccc2n1-c1ccc2c(c1)n(C)c(=O)n2C`: the IC50 in experiment [1] was 0.5 to 5 µM; in experiment [2], over 5 µM.

On to `CNC(=O)c1ccc2c(c1)nc(-c1cncn1C)n2-c1ccc2c(c1)n(C)c(=O)n2C`, for which the values for the IC50 in experiment [1] and in experiment [2] were 0.5 to 5 µM and over 5 µM, respectively.

`CNC(=O)c1ccc(-c2ccc3c(c2)nc(-c2cncs2)n3-c2ccc3c(c2)n(C)c(=O)n3C)cc1F`: the IC50 in experiment [1] is 0.5 to 5 µM; in experiment [2], over 5 µM.

Take `CCOC(=O)Cn1cc(-c2ccc3c(c2)nc(-c2cncn2C)n3-c2ccc3c(c2)n(C)c(=O)n3C)nn1`: the results for the half-maximal inhibitory concentration (IC50) in experiment [1] and in experiment [2] were 0.5 to 5 µM and over 5 µM, respectively.

Turning to `Cc1csc(-c2ccc3c(c2)nc(-c2cncn2C)n3-c2ccc3c(c2)n(C)c(=O)n3C)c1`, the values for the 50% inhibitory concentration (IC50) in experiment [1] and in experiment [2] were 0.5 to 5 µM and over 5 µM, respectively.

For `Cn1cncc1-c1nc2cc(-c3ccc4c(c3)CCO4)ccc2n1-c1ccc2c(c1)n(C)c(=O)n2C`, the figures for the IC50 in experiment [1] and in experiment [2] were 0.5 to 5 µM and over 5 µM, respectively.

For `CNC(=O)c1ccc(-c2ccc3c(c2)nc(-c2cccc4c2CCCC4)n3-c2ccc3c(c2)n(C)c(=O)n3C)cc1F`, the IC50 in experiment [1] was under 0.5 µM; in experiment [2], over 5 µM.

On to `Cn1cncc1-c1nc2cc(-c3cnn(CC(F)(F)F)c3)ccc2n1-c1ccc2c(c1)n(C)c(=O)n2C`, for which the IC50 in experiment [1] was 0.5 to 5 µM; in experiment [2] it was over 5 µM.

With `Cc1ccc2c(-c3nc4cc(C5=CCNCC5)ccc4n3-c3ccc4c(c3)n(C)c(=O)n4C)c[nH]c2c1`, the results for the IC50 in experiment [1] and in experiment [2] were 0.5 to 5 µM and over 5 µM, respectively.

In the case of `COc1ccc(-c2ccc3c(c2)nc(-c2cncn2C)n3-c2ccc3c(c2)n(C)c(=O)n3C)cc1`, the values for the IC50 in experiment [1] and in experiment [2] were under 0.5 µM and over 5 µM, respectively.

As to `CNC(=O)c1ccc(-c2ccc3c(c2)nc(-c2cccc(C)c2)n3-c2ccc3c(c2)n(C)c(=O)n3C)cc1F`, the IC50 was 0.5 to 5 µM in experiment [1] and over 5 µM in experiment [2].

`Cn1cncc1-c1nc2cc(-c3ccccn3)ccc2n1-c1ccc2c(c1)n(C)c(=O)n2C`: the values for the IC50 in experiment [1] and in experiment [2] were 0.5 to 5 µM and over 5 µM, respectively.

On to `Cn1cncc1-c1nc2cc(-c3ccc(=O)n(C)c3)ccc2n1-c1ccc2c(c1)n(C)c(=O)n2C`, for which the IC50 in experiment [1] and in experiment [2] was 0.5 to 5 µM throughout.

With `Cn1cncc1-c1nc2cc(-c3cnn(C)c3C(F)(F)F)ccc2n1-c1ccc2c(c1)n(C)c(=O)n2C`, the IC50 in experiment [1] was 0.5 to 5 µM; in experiment [2] it was over 5 µM.

With `CNC(=O)c1ccc(-c2ccc3c(c2)nc(-c2ccoc2C)n3-c2ccc3c(c2)n(C)c(=O)n3C)cc1F`, the IC50 in experiment [1] is 0.5 to 5 µM; in experiment [2], over 5 µM.

Consider `COC(=O)c1ccc(-c2ccc3c(c2)nc(-c2cncn2C)n3-c2ccc3c(c2)n(C)c(=O)n3C)cc1F`, for which the IC50 in experiment [1] was 0.5 to 5 µM; in experiment [2], over 5 µM.

Consider `Cn1cncc1-c1nc2cc(-c3cn(CCO)nn3)ccc2n1-c1ccc2c(c1)n(C)c(=O)n2C`, for which the results for the 50% inhibitory concentration (IC50) in experiment [1] and in experiment [2] were 0.5 to 5 µM and over 5 µM, respectively.

`Cn1cncc1-c1nc2cc(-c3ccc(N)nc3)ccc2n1-c1ccc2c(c1)n(C)c(=O)n2C`: the 50% inhibitory concentration (IC50) in experiment [1] was under 0.5 µM; in experiment [2], over 5 µM.

Turning to `Cn1cncc1-c1nc2cc(-c3nc(=O)o[nH]3)ccc2n1-c1ccc2c(c1)n(C)c(=O)n2C`, the values for the IC50 in experiment [1] and in experiment [2] were under 0.5 µM and over 5 µM, respectively.

Take `Cn1cncc1-c1nc2cc(-c3ccnn3C)ccc2n1-c1ccc2c(c1)n(C)c(=O)n2C`: the results for the IC50 in experiment [1] and in experiment [2] were 0.5 to 5 µM and over 5 µM, respectively.

With `Cc1ccc2c(-c3nc4cc(-c5cnn(C)c5)ccc4n3-c3ccc4c(c3)n(C)c(=O)n4C)c[nH]c2c1`, the IC50 in experiment [1] was 0.5 to 5 µM; in experiment [2], over 5 µM.

Turning to `Cn1cncc1-c1nc2cc(-c3cn(CC(=O)NCc4ccccc4)nn3)ccc2n1-c1ccc2c(c1)n(C)c(=O)n2C`, the IC50 was 0.5 to 5 µM in experiment [1] and over 5 µM in experiment [2].

For the compound `CNC(=O)c1ccc(-c2ccc3c(c2)nc(-c2cscn2)n3-c2ccc3c(c2)n(C)c(=O)n3C)cc1F`, the IC50 in experiment [1] and in experiment [2] was over 5 µM each time.

As to `CNC(=O)c1ccc(-c2ccc3c(c2)nc(-c2ccccc2C(F)(F)F)n3-c2ccc3c(c2)n(C)c(=O)n3C)cc1F`, the IC50 in experiment [1] was 0.5 to 5 µM; in experiment [2], over 5 µM.

Turning to `CNC(=O)c1ccc(-c2ccc3c(c2)nc(-c2cccnc2)n3-c2ccc3c(c2)n(C)c(=O)n3C)cc1F`, the results for the IC50 in experiment [1] and in experiment [2] were 0.5 to 5 µM and over 5 µM, respectively.

Regarding `CNC(=O)c1ccc(-c2ccc3c(c2)nc(-c2ccoc2)n3-c2ccc3c(c2)n(C)c(=O)n3C)cc1F`, the results for the IC50 in experiment [1] and in experiment [2] were 0.5 to 5 µM and over 5 µM, respectively.

On to `CNC(=O)c1ccc(-c2ccc3c(c2)nc(-c2ccco2)n3-c2ccc3c(c2)n(C)c(=O)n3C)cc1F`, for which the IC50 in experiment [1] and in experiment [2] was over 5 µM in each case.

As to `CNC(=O)c1ccc(-c2ccc3c(c2)nc(-c2cnn(C)c2)n3-c2ccc3c(c2)n(C)c(=O)n3C)cc1F`, the IC50 in experiment [1] is 0.5 to 5 µM; in experiment [2], over 5 µM.

For the compound `CNC(=O)c1ccc(-c2ccc3c(c2)nc(-c2ccccc2)n3-c2ccc3c(c2)n(C)c(=O)n3C)cc1F`, the half-inhibitory concentration (IC50) in experiment [1] was 0.5 to 5 µM; in experiment [2], over 5 µM.

`CNC(=O)c1ccc(-c2ccc3c(c2)nc(-c2cccc(OC)c2C)n3-c2ccc3c(c2)n(C)c(=O)n3C)cc1F`: the IC50 in experiment [1] was under 0.5 µM; in experiment [2], over 5 µM.

For the compound `Cc1cc(-c2ccc3c(c2)nc(-c2cncn2C)n3-c2ccc3c(c2)n(C)c(=O)n3C)ccn1`, the IC50 in experiment [1] was under 0.5 µM; in experiment [2] it was 0.5 to 5 µM.

On to `Cn1cc(-c2ccc3c(c2)nc(-c2cncn2C)n3-c2ccc3c(c2)n(C)c(=O)n3C)cn1`, for which the IC50 in experiment [1] and in experiment [2] was 0.5 to 5 µM in each case.

Values taken from EP4837906A1, “NOVEL COMPOUND USED AS CBP/PA300 INHIBITOR, AND PHARMACEUTICAL COMPOSITION FOR PREVENTING OR TREATING CANCER, INFLAMMATORY DISORDERS, OR AUTOIMMUNE DISEASES COMPRISING SAME AS ACTIVE INGREDIENT” (dated 2026).
